Molecular target: hPK-M2 (Homo sapiens, UniProt P14618)
Experiment: Fluorescent pyruvate kinase-lactate dehydrogenase (LDH) coupled secondary assay
Type: biochemical
Conditions: tables
Procedure: Fluorescent Pyruvate Kinase-Lactate Dehydrogenase Coupled Secondary Assay.
Plates were immediately placed in ViewLux (Perkin Elmer) and NADH fluorescence was determined at 30 second exposure intervals for between 3 and 6 minutes. Data were normalized to the uninhibited and EC100 activation using known activators such as fructose-1,6-bis-phosphate. […] Data was collected on the Perkin Elmer Viewlux.

Protein sequences, listed by entry. Tags and fused reporters are not part of them.
UniProt P14618, whole entry: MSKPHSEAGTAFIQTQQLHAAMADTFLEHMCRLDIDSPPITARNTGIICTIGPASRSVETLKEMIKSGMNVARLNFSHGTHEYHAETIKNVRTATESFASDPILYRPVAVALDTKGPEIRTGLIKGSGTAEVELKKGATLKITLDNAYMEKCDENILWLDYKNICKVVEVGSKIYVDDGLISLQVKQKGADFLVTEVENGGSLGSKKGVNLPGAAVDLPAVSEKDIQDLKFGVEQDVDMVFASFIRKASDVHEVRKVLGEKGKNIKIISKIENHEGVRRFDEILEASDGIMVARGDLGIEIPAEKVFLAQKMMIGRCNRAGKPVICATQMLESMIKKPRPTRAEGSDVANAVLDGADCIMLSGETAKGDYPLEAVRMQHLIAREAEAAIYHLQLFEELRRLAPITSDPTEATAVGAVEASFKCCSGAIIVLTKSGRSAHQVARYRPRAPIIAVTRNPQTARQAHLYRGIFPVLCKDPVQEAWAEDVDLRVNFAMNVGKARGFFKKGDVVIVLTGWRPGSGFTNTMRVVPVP

- AC50: 91.9 nM
Compound: Nc1cccc(S(=O)(=O)N2CCCN(S(=O)(=O)c3ccc4c(c3)OCCO4)CC2)c1 [Compound 124]
